Experimental data: ChEMBL document CHEMBL1135048, “Synthesis and biological evaluation of 2-indolyloxazolines as a new class of tubulin polymerization inhibitors. Discovery of A-289099 as an orally active antitumor agent” (Bioorg Med Chem Lett, 2002)

Chains of the proteins cited; added tags and fusions are not shown.
UniProt Q6B856, whole entry: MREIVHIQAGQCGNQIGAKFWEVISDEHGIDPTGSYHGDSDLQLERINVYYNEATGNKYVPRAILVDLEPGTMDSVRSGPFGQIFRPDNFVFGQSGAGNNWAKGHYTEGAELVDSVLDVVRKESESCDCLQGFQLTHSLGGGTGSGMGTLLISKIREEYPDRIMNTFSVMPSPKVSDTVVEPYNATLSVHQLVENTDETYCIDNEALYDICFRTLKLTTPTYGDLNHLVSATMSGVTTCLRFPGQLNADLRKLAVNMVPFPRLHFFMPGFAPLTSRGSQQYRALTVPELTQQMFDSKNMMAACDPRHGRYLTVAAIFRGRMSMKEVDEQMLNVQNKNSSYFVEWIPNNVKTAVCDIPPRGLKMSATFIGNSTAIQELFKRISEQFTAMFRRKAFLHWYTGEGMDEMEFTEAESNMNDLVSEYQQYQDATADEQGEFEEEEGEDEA

Biological target: Tubulin beta chain (Bos taurus, UniProt Q6B856)
Assay: Binding constant at colchicine site of bovine brain tubulin

In the case of COc1cc([C@H]2CN=C(c3ccc4c(ccn4C)c3)O2)cc(OC)c1OC, the Ki is reported as 630 nM.

Work on COc1cc([C@@H]2CN=C(c3ccc4c(ccn4C)c3)O2)cc(OC)c1OC yielded a Ki of 3690 nM.
